Patent US5455230A, “Delta opioid receptor antagonists and their use as analgesic agents” (Aktiebolaget Astra, priority 1993, dated 1995)

Sequences of proteins named here, by UniProt entry; tags and fusion partners are left off.
UniProt P33535, whole entry: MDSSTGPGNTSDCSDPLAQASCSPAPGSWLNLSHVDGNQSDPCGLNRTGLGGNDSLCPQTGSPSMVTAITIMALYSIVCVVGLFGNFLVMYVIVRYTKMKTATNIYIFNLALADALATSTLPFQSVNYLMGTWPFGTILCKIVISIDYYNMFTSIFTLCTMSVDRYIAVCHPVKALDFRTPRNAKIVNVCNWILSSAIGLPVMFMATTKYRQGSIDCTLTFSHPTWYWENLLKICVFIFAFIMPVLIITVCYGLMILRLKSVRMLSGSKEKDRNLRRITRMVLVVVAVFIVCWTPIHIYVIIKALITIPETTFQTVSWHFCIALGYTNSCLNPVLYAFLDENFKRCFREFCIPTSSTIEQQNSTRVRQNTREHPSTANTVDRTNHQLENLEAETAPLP

Target: T1, μ opioid receptor (Rattus norvegicus, UniProt P33535)
T1 construct: from tissue; host or cells: rat brain (without cerebellum) membranes, Sprague-Dawley
Assay: μ opioid receptor binding assay, displacement of [3H]DAMGO from rat brain membranes
Source text: In the case of κ-ligands guinea pig brain homogenates were used, since the relative proportion of κ-binding sites is higher in guinea pig brain than in rat brain. The experimental procedure being used in our laboratory represents a modified version of the binding assay described by Pastemak et al. (Mol. Pharmacol. 11,340-351, (1975)). Male Sprague-Dawley rats (300-350 g) from the Canadian Breeding Laboratories were decapitated and after removal of the cerebellum the brains were homogenized in 30 volumes of ice-cold standard buffer (50 mM Tris-HCl, pH 7.7). After centrifugation at 30,000×g for 30 min at 4° C. the membranes were reconstituted in the original volume of standard buffer and incubated for 30 min at 37° C. (to release bound endogenous ligands). […] The incubation was terminated by filtration through Whatman GF/B filters under vacuum at 4° C. Following two washings with 5 ml portions of ice-cold standard buffer the filters were transferred to scintillation vials and treated with 1 ml Protosol (New England Nuclear) for 30 min prior to the addition of 0.5 ml acetic acid and 10 ml Aquasol (New England Nuclear). After shaking for 30 min the vials were counted at an efficiency of 40-45%. All experiments were performed in duplicates and repeated at least three times. […] Values of half-maximal inhibition (IC50) of specific binding were obtained graphically from semilogarithmic plots.

Q: How did the Ki turn out when `Oc1ccc2c3c1O[C@H]1c4[nH]c5ccccc5c4C[C@@]4(O)[C@@H](C2)N(CC2CC2)CC[C@]314` [Naltrindole, naltrindole, reference compound] was run?
A: Its Ki is 12.2 ± 1.9 nM.
